{"sequences": {"note": "By UniProt entry, the sequences of proteins in these tests, tags left out.", "UniProt P00533, whole entry, looked up": "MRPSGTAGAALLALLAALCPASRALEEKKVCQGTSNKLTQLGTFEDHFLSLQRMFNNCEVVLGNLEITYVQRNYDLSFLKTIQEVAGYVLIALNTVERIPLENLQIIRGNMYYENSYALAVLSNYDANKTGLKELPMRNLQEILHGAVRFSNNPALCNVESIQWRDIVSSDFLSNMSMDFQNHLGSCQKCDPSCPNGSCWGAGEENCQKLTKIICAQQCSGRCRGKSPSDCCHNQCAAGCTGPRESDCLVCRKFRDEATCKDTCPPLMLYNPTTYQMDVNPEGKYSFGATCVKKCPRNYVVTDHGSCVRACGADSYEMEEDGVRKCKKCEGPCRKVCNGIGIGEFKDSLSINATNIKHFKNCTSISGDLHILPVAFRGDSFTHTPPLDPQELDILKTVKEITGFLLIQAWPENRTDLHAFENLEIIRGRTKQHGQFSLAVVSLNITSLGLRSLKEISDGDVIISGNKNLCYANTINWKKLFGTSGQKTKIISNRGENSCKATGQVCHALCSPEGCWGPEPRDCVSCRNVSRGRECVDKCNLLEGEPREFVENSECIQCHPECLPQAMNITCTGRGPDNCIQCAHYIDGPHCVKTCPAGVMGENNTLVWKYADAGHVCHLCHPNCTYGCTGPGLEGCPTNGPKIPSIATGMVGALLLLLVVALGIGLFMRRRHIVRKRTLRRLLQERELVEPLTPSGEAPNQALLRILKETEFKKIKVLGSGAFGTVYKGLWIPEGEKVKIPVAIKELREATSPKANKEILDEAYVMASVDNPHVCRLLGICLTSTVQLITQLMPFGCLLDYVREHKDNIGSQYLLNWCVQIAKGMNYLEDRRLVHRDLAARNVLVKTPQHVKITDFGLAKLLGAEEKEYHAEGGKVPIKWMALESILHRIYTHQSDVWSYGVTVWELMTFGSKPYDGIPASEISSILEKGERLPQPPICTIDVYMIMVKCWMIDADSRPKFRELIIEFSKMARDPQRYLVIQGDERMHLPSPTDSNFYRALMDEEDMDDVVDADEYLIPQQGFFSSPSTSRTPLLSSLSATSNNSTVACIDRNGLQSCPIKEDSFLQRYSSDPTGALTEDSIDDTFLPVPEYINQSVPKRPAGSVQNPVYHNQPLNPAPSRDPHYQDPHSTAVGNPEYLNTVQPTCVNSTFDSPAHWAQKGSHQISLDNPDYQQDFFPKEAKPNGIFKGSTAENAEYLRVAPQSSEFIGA"}, "source": "the Kinase Knowledgebase extract (Sharma et al. 2016)", "target": "EGFR (human) (UniProt P00533)", "data": [{"molecule": "COc1cc2ncnc(Nc3cccc(Cl)c3)c2cc1OC", "values": [{"measurement": "IC50", "value": 6.3, "unit": "nM"}]}]}
